This note sets out measurements from PubChem BioAssay AID1850 (Southern Research Specialized Biocontainment Screening …, 2009).

This is a selection; strong and weak results do not stand in their true shares. Measured potencies and affinities stand elsewhere. The source made the active and inactive calls. The rule behind the calls is not given here.

This assay in a line: PhoP regulon inhibitors, Salmonella typhi PhoP promoter GFP reporter, confirmatory (AID 1850).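 Note: 0% = induced wells with vehicle and 100% = uninduced wells.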 Conditions: fluorescence, 4 h, at 50 µM, hits give high values.
Take `CCN(/C(=N/P(=O)(N1CCOCC1)N1CCOCC1)N1CCOCC1)c1ccc(OC)cc1`: the inhibition (commonly the change of the read-out against control, counted positive when it falls) was inactive: -5.91%.
As for `C[N+]1=C2C=CC=CC=C2SC12C([N+](=O)[O-])=CC([N+](=O)[O-])=C[C-]2[N+](=O)[O-]` (stereo unspecified), the inhibition was inactive: 9.94%.
On to `Nc1ccc([As](=O)(O)c2ccc(N)cc2)cc1`, for which the inhibition was inactive: 9.82%.
Consider `O=[N+]([O-])c1cc([N+](=O)[O-])c(CCNc2ccccc2)c([N+](=O)[O-])c1`, for which the inhibition was inactive: 1.03%.
As to `CCc1nc2c(n1)c1c(non1O)c1c2no[n+]1[O-]`, the inhibition is inactive: -2.16%.
For `Cc1ccc(NP(=O)(Oc2ccccc2)Oc2ccccc2)nc1`, the inhibition is inactive: -1.38%.
For the molecule `CC(=O)N1C2C3N(C(C)=O)C1C1N(C(C)=O)C(C(N1C(C)=O)N3C(C)=O)N2C(C)=O`, the inhibition was inactive: -3.36%.
Take `O=[N+]([O-])c1cccc2n[nH]nc12`: the inhibition was inactive: 13.4%.
In the case of `COc1ccc(C2=NCC(CBr)S2)cc1` (stereo unspecified), the inhibition was inactive: 15.8%.
As to `c1nnnn1CCn1cnnn1`, the inhibition is inactive: 3.73%.
Take `O=P(Nc1nccs1)(c1ccccc1)c1ccccc1`: the inhibition is inactive: 6.1%.
Regarding `CC(C)C(=O)NC(Sc1ccccc1)C(Cl)(Cl)Cl` (stereo unspecified), the inhibition was inactive: -6.01%.
Regarding `O=C(OC1CN2CCC1CC2)c1cccc(Cl)c1` (stereo unspecified), the inhibition was inactive: -3.51%.
On to `C(Cc1nn[nH]n1)Cc1nn[nH]n1`, for which the inhibition was inactive: 4.02%.
The same measure for `Nc1ccc([As](=O)(O)c2ccc([N+](=O)[O-])cc2)cc1`: inactive: 1.79%; for `O=[As](O)(c1ccccc1)c1ccc(O)cc1`: inactive: -11.8%.
On to `O=[N+]([O-])c1ncn(CCn2cnc([N+](=O)[O-])n2)n1`, for which the inhibition is inactive: 10.1%.
The result for `CC(=O)NC(SC(=S)N(C)C)C(Cl)(Cl)Cl` (stereo unspecified) reads inactive: 1.73%.
The result for `O=[N+]([O-])c1ccc(O)c(/C=N/Nc2ccc([N+](=O)[O-])cc2[N+](=O)[O-])c1` reads inactive: 2.54%; that for `C[C@H]1OP(=O)(Oc2ccccc2)[C@H](O)[C@H](O)[C@H]1N=[N+]=[N-]` (stereo partly specified), inactive: 3.65%; that for `O=P(Nc1nc2ccccc2s1)(c1ccccc1)c1ccccc1`, inactive: 12.7%.
Take `CN(C)C1(CNC(=O)c2ccc(Cl)c(S(N)(=O)=O)c2)CCCCC1`: the inhibition was inactive: -8.42%.
Regarding `O=P(Nc1ccccn1)(c1ccc(Br)cc1)c1ccc(Br)cc1`, the inhibition is inactive: -6.04%.
Turning to `CN(C)C(=O)Oc1noc2ccccc12`, the inhibition is inactive: -1.95%.
As for `Cc1ccccc1OP(=O)(Nc1ccccn1)Oc1ccccc1C`, the inhibition is inactive: 4.41%.
Turning to `CCC(=O)N1C2C3N(C(=O)CC)C1C1N(C(=O)CC)C(C(N1C(=O)CC)N3C(=O)CC)N2C(=O)CC`, the inhibition was inactive: 5.46%.
